{"source": "patent US5091176A", "about": "“Polymer-modified peptide drugs having enhanced biological and pharmacological activities” (W. R. Grace & Co.-Conn., priority 1990, dated 1992)", "system": "alkaline phosphatase", "conditions": "alkaline phosphatase 50 ng/well; rabbit antisera, day 35 test bleed; FIG. 1", "data": [{"substance": "alkaline phosphatase", "values": [{"measurement": "binding of the antiserum raised against the antigen to immobilized alkaline phosphatase (immunogenicity)", "value": "strong binding"}]}]}
